Some salts and complexes are drawn in separate pieces, as the source files them; their charges need not balance.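 These data come from cells grown in 96-well plates and exposed to compound for 48 hours at five concentrations. GI50 is the concentration that inhibits growth by half. The concentration for full growth arrest is given as TGI.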
What was measured:
Assay in all cases: inhibition of tumour cell growth, NCI panel, 48 h
[1] = test system: UACC-257 melanoma
[2] = test system: 786-0 renal
[3] = test system: NCI-H522 lung
[4] = test system: SK-MEL-2 melanoma
[5] = test system: M14 melanoma
[6] = test system: HCT-116 colon
[7] = test system: SN12C renal
[8] = test system: HCC-2998 colon
[9] = test system: HOP-92 NSCLC
[10] = test system: UACC-62 melanoma
[11] = test system: K-562 leukemia
[12] = test system: TK-10 renal
[13] = test system: SW-620 colon
[14] = test system: SF-295 CNS
[15] = test system: CCRF-CEM leukemia
[16] = test system: BT-549 breast
[17] = test system: COLO 205 colon
[18] = test system: OVCAR-8 ovarian
[19] = test system: OVCAR-5 ovarian
[20] = test system: RXF 393 renal
[21] = test system: MDA-MB-435
[22] = test system: NCI/ADR-RES ovarian
[23] = test system: NCI-H226 lung
[24] = test system: HOP-62 NSCLC
[25] = test system: UO-31 renal
[26] = test system: OVCAR-4 ovarian
[27] = test system: SK-MEL-5 melanoma
[28] = test system: SNB-19 CNS
[29] = test system: RPMI-8226 leukemia
[30] = test system: MCF7 breast
[31] = test system: MDA-N
[32] = test system: SF-268 CNS
[33] = test system: HT29 colon
[34] = test system: MOLT-4 leukemia
[35] = test system: NCI-H23 lung
[36] = test system: SK-MEL-28 melanoma
[37] = test system: SNB-75 CNS
[38] = test system: OVCAR-3 ovarian
[39] = test system: A498 renal
[40] = test system: HCT-15 colon
[41] = test system: SK-OV-3 ovarian
[42] = test system: U251 CNS
[43] = test system: KM12 colon
[44] = test system: PC-3 prostate
[45] = test system: EKVX NSCLC
[46] = test system: NCI-H460 lung
[47] = test system: IGROV1 ovarian
[48] = test system: T-47D breast
[49] = test system: LOX IMVI melanoma
[50] = test system: HL-60(TB) leukemia
[51] = test system: MDA-MB-231 breast
[52] = test system: MALME-3M melanoma
[53] = test system: SF-539 CNS
[54] = test system: DU-145 prostate
[55] = test system: A549 NSCLC
[56] = test system: HS 578T breast
[57] = test system: ACHN renal
[58] = test system: NCI-H322M lung

In the case of `CN([PH+](F)F)[PH+](F)F.CN([PH+](F)F)[PH+](F)F.[C-]#[O+].[C-]#[O+].[C-]#[O+].[C-]#[O+].[CH-]=O.[Fe].[Fe]`, the GI50 [1] is reported as 1.76 µM, the TGI [1] is reported as 5.77 µM and the GI50 [2] is reported as 1.36 µM. The TGI [2] was 2.81 µM, the GI50 [3] was 0.692 µM and the TGI [3] was 2.44 µM. For the same molecule, the GI50 [4] was 1.48 µM, the TGI [4] was 3.18 µM and the GI50 [5] was 2.13 µM. It also gave a TGI [5] of 9.85 µM, a GI50 [6] of 2.02 µM and a TGI [6] of 6.41 µM. It also gave a GI50 [7] of 2.12 µM, a TGI [7] of 5.66 µM and a GI50 [8] of 2.3 µM. The TGI [8] was 7.46 µM, the GI50 [9] was 1.72 µM and the TGI [9] was 6.01 µM. For the same molecule, the GI50 [10] was 2.43 µM, the TGI [10] was 12 µM and the GI50 [11] was 0.37 µM. The TGI [11] was 15.5 µM, the GI50 [12] was 4.14 µM and the TGI [12] was 15.1 µM. The GI50 [13] was 1.71 µM, the TGI [13] was 6.07 µM and the GI50 [14] was 1.67 µM. The TGI [14] was 4.2 µM, the GI50 [15] was 0.366 µM and the TGI [15] was over 100 µM. It also gave a GI50 [16] of 0.94 µM, a TGI [16] of 2.43 µM and a GI50 [17] of 1.5 µM. It also gave a TGI [17] of 3.22 µM, a GI50 [18] of 2.06 µM and a TGI [18] of 7.2 µM. The GI50 [19] was 8.33 µM, the TGI [19] was 23 µM and the GI50 [20] was 2.1 µM. The TGI [20] was 5.32 µM, the GI50 [21] was 2.1 µM and the TGI [21] was 6.96 µM. The GI50 [22] was 46.8 µM, the TGI [22] was over 100 µM and the GI50 [23] was 4.85 µM. For the same molecule, the TGI [23] was 20.6 µM, the GI50 [24] was 2.6 µM and the TGI [24] was 11.9 µM. It also gave a GI50 [25] of 4.16 µM, a TGI [25] of 16.3 µM and a GI50 [26] of 1.64 µM. It also gave a TGI [26] of 8.77 µM, a GI50 [27] of 0.728 µM and a TGI [27] of 1.85 µM. It also gave a GI50 [28] of 3.39 µM, a TGI [28] of 15.3 µM and a GI50 [29] of 0.332 µM. It also gave a TGI [29] of 2.04 µM, a GI50 [30] of 1.04 µM and a TGI [30] of 4.35 µM. It also gave a GI50 [31] of 1.67 µM, a TGI [31] of 3.38 µM and a GI50 [32] of 1.12 µM. For the same molecule, the TGI [32] was 7.43 µM, the GI50 [33] was 0.584 µM and the TGI [33] was 1.91 µM. It also gave a GI50 [34] of 0.675 µM, a TGI [34] of 3.41 µM and a GI50 [35] of 1.45 µM. For the same molecule, the TGI [35] was 7.44 µM, the GI50 [36] was 1.04 µM and the TGI [36] was 2.49 µM. For the same molecule, the GI50 [37] was 0.677 µM, the TGI [37] was 4.54 µM and the GI50 [38] was 0.331 µM. For the same molecule, the TGI [38] was 1.34 µM, the GI50 [39] was 3.12 µM and the TGI [39] was 13.1 µM. The GI50 [40] was 4.37 µM, the TGI [40] was 14.9 µM and the GI50 [41] was 3.84 µM. It also gave a TGI [41] of 12.4 µM, a GI50 [42] of 1.88 µM and a TGI [42] of 5.81 µM. It also gave a GI50 [43] of 0.616 µM, a TGI [43] of 2.37 µM and a GI50 [44] of 20.4 µM. The TGI [44] was 36.8 µM, the GI50 [45] was 2.73 µM and the TGI [45] was 13.2 µM. For the same molecule, the GI50 [46] was 1.52 µM, the TGI [46] was 5.86 µM and the GI50 [47] was 2.46 µM. The TGI [47] was 11.7 µM, the GI50 [48] was 1.47 µM and the TGI [48] was 12.4 µM. It also gave a GI50 [49] of 1.44 µM, a TGI [49] of 2.78 µM and a GI50 [50] of 0.29 µM. It also gave a TGI [50] of 1.91 µM, a GI50 [51] of 1.98 µM and a TGI [51] of 4.66 µM. The GI50 [52] was 1.38 µM, the TGI [52] was 3.61 µM and the GI50 [53] was 2.15 µM. The TGI [53] was 5.02 µM, the GI50 [54] was 3.8 µM and the TGI [54] was 15.2 µM. For the same molecule, the GI50 [55] was 1.91 µM, the TGI [55] was 13.6 µM and the GI50 [56] was 2.49 µM. For the same molecule, the TGI [56] was 13 µM, the GI50 [57] was 5.02 µM and the TGI [57] was 18 µM. It also gave a GI50 [58] of 2.47 µM and a TGI [58] of 7.59 µM.

— PubChem BioAssay (NCI)
